System: acne model in rabbits
Assay: Acne model in rabbits (coal tar + Propionibacterium acnes)
Parameters: species or system New Zealand white rabbits
Conditions: rabbit, in vivo

## CCC[C@@H]1C[C@@H](C(=O)N[C@@H]([C@H]2O[C@H](SC)[C@H](O)[C@@H](O)[C@H]2O)[C@H](C)Cl)N(C)C1 [clindamycin, reference compound]
  Ear tissue HE staining: still a significant amount of keratin hyperplasia

— patent US20250387388A1, “COMPOUND AS TRK INHIBITOR AND/OR RET INHIBITOR AND USE THEREOF” (Medinno Pharmaceutical Technology (Zhuhai) Co., Ltd., priority 2022, published 2025)
